Publication PMC6345774, “Kinetic and thermodynamic effects of phosphorylation on p53 binding to MDM2” (Scientific Reports, 2019)

Assays:
[1] = Far-UV CD of isolated peptides in aqueous solution (helicity); assay type: physicochemical; details: 5 °C, 50 mM phosphate pH 6.8
Method: Spectra were acquired on a Jasco J815 spectropolarimeter (Jasco, Japan) interfaced with a Peltier unit. The instrument was periodically calibrated with (+) 10-camphorsulphonic acid. Far-UV measurements (in aqueous or TFE solutions) were performed in 0.1-cm-pathlength quartz cells (Hellma), with a response time of 2 s, a band width of 1 nm, data were collected every 0.2 nm, and a scan velocity of 50 nm/min (or 20 nm/min). Six (or five) scans were averaged and collected between 195 and 250 nm or between 190 nm and 260 nm (for the highest concentration assayed). In all peptides, two concentrations (10 μM and 70 μM) in aqueous solutions (50 mM sodium phosphate buffer, pH 6.8 […]) were used to determine whether either the shapes or the intensities of the spectra were concentration-dependent. […] In all cases (aqueous solution or TFE titrations), the corresponding blank solutions (containing only buffer, or buffer and the corresponding amount of TFE) were subtracted from the spectra.
For the TFE titrations, a peptide concentration of 40 μM was used. The samples were prepared the day before and left overnight at 5 °C to reach equilibrium. The experiments in aqueous solution were acquired at 5 °C, in 50 mM sodium phosphate buffer, pH 6.8. Raw ellipticity was converted to molar ellipiticity, [Θ], from which the percentage of helical populations was determined. […]

[2] = target: MDM2; details: read-out: Kd of other p53 peptides of different lengths; cited from earlier work
Excerpt: We were able to obtain much more accurate Kd values by using ITC. Since ITC is the gold-standard[37] for determining binding affinities, we refer to these Kd values in our subsequent discussion.

| Molecule | molar ellipticity at 222 nm, [Θ]222 ([1]; far-UV CD) [deg cm^2 dmol^−1] | % Helix in water ([Θ]222) ([1]; from molar ellipticity at 222 nm assuming 100% helix = −31500 deg cm^2 dmol^−1) [%] | Kd [2] [nM] |
| --- | --- | --- | --- |
| CC(=O)N[C@@H](CCC(=O)O)C(=O)N[C@H](C(=O)N[C@@H](Cc1ccccc1)C(=O)N[C@@H](CO)C(=O)N[C@@H](CC(=O)O)C(=O)N[C@@H](CC(C)C)C(=O)N[C@@H](Cc1c[nH]c2ccccc12)C(=O)N[C@@H](CCCCN)C(=O)N[C@@H](CC(C)C)C(=O)N[C@@H](CC(C)C)C(=O)N1CCC[C@H]1C(=O)N[C@@H](CCC(=O)O)C(=O)N[C@@H](CC(N)=O)C(N)=O)[C@@H](C)O [P53-WT] | −2741 | 8.7 | – |
| Ser15-Asn29: p53 peptide of different length (residues Ser15-Asn29) from ref 23 | – | – | 500 |
| Glu17-Leu26: p53 peptide of different length (residues Glu17-Leu26) from ref 23 | – | – | 46 |
